Data reported in ChEMBL document CHEMBL1154346 (Bioorg Med Chem Lett, 2009).

The chains behind the UniProt entries cited, without tags or fusion partners. Where a name states a change or a piece, a line headed by the entry shows the natural chain unless it says otherwise.
UniProt P35372, whole entry, looked up: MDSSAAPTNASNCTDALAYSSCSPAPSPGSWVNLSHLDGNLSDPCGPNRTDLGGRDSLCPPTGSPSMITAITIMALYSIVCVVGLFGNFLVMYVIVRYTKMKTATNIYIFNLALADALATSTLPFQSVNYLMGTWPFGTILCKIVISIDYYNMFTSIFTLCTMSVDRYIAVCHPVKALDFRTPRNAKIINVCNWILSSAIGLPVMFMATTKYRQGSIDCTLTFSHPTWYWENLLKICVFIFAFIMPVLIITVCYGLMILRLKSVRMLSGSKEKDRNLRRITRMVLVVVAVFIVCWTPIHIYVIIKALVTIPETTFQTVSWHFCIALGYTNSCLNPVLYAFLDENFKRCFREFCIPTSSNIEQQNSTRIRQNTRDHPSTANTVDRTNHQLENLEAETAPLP
UniProt P41146: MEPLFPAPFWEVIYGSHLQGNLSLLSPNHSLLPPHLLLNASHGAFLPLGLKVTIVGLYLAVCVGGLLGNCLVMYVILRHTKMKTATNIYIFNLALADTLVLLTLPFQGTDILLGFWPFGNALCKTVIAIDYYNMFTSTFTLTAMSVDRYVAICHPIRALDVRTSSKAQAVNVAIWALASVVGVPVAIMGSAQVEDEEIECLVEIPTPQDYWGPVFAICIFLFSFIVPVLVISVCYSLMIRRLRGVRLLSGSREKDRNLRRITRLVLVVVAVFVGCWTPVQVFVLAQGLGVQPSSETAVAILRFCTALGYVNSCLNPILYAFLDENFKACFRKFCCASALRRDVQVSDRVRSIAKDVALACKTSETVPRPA
UniProt Q12809: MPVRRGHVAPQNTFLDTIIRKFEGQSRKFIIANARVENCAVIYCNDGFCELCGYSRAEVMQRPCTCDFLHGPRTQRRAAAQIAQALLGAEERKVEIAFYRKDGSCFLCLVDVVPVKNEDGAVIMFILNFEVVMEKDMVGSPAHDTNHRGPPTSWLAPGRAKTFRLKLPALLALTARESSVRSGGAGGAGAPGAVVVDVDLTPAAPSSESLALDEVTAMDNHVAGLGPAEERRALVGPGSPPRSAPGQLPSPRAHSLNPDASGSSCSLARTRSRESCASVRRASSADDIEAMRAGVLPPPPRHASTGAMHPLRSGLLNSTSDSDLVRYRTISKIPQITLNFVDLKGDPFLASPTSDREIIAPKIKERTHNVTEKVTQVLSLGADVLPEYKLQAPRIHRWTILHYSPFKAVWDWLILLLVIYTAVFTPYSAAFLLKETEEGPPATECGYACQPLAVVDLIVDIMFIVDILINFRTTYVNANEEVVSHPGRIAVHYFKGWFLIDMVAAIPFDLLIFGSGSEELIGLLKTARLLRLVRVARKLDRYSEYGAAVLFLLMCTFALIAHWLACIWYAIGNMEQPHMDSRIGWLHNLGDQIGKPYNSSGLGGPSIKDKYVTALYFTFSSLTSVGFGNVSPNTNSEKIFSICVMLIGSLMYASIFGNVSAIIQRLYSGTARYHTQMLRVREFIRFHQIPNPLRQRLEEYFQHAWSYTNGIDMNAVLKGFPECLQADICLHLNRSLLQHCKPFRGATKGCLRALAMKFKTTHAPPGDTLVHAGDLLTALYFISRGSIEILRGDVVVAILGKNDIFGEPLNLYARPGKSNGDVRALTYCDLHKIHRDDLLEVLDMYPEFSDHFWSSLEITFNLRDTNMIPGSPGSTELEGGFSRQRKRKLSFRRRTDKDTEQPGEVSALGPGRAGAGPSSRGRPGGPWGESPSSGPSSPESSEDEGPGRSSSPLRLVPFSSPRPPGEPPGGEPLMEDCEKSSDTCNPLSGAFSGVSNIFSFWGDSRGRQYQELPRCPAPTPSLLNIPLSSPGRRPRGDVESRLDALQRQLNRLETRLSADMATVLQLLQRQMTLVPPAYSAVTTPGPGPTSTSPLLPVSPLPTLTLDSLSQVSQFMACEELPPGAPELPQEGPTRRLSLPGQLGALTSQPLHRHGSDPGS

Experiments:
Mu-type opioid receptor = Mu-type opioid receptor (Homo sapiens, UniProt P35372); assay: Displacement of [3H]diprenorphine from human MOP receptor expressed in CHOK1 cells; conditions: cho-k1
Nociceptin receptor [1] = biological target: T1, Nociceptin receptor (Homo sapiens, UniProt P41146); assay: Agonist activity at human NOP receptor expressed in CHO cells assessed as inhibition of forskolin-stimulated cAMP production after 2 hrs
Nociceptin receptor [2] = biological target: T1, Nociceptin receptor; assay: Displacement of [3H]nociceptin from human NOP receptor expressed in CHO cells
[3] = biological target: Voltage-gated inwardly rectifying potassium channel KCNH2 (Homo sapiens, UniProt Q12809); assay: Displacement of [3H]dofetilide from human ERG expressed in HEK293 cells; type: cell-based

| SMILES | Ki (Mu-type opioid receptor) [nM] | IC50 (Nociceptin receptor [1]) [nM] | Ki (Nociceptin receptor [2]) [nM] | Ki [3] [nM] |
| --- | --- | --- | --- | --- |
| CNC(=O)CN1N=C(c2ccccc2)C2(CCN(C3CCC(C(C)(C)C)CC3)CC2)C1=O (centres undefined) | 7.3 | 685 | 44 |  |
| CNC(=O)CN1N=C(c2ccccc2)C2(CCN(C3CCC4CCCCC4C3)CC2)C1=O (centres undefined) | 5.8 | 18 | 7.7 |  |
| CNC(=O)CN1C(=O)OC2(CCN(C3CCC(C(C)C)CC3)CC2)c2ccccc21 (centres undefined) | 108 | 448 | 106 |  |
| CNC(=O)CN1N=C(c2ccccc2)C2(CCN(C3CCC(C(C)C)CC3)CC2)C1=O (centres undefined) | 5.2 | 53 | 11 |  |
| CNC(=O)CN1C(=O)OC2(CCN(C3CCCCCC3)CC2)c2ccccc21 | 527 |  | 2150 |  |
| CNC(=O)CN1N=C(c2ccccc2)C2(CCN(C3CCCCCC3)CC2)C1=O |  |  | 227 |  |
| CNC(=O)CN1C(=O)OC2(CCN(C3CCC(C(C)(C)C)CC3)CC2)c2ccccc21 (centres undefined) | 113 |  | 295 |  |
| CNC(=O)CN1N=C(c2ccccc2)C2(CCN(C3CCCCCCCCC3)CC2)C1=O | 1.1 | 9.6 | 2.3 |  |
| CNC(=O)Cn1c(=O)n(C2CCN([C@H]3CC[C@@H](C(C)C)CC3)CC2)c2ccccc21 |  |  |  | 4200 |
| CNC(=O)CN1C(=O)OC2(CCN(C3CCCCCCCCC3)CC2)c2ccccc21 | 27 | 103 | 28 |  |
